Assay [1] relates to SM1 melanoma tumors. The following applies: pre-treatment, SM1 model in C57BL/6 mice, previously demonstrated; cited from earlier work.
Assay [2] deals with STAT3. The assay is described as follows: IL-6 induced STAT3 phosphorylation in WM164 melanoma cells. As to conditions: WM164 cells pre-treated with 5 μM, then IL-6 (30 ng/mL) for 20 min, vs IL-6 alone.

Data on one compound can be found in patent US20230250054A1, “SELECTIVE HISTONE DEACETYLASE 6 INHIBITORS” (The Board of Trustees of the University of Illinois, priority 2020, published 2023).

Structures are written as SMILES.

On to `CCCCN(Cc1ccc(C(=O)NO)cc1)C(=O)Nc1ccccc1`, for which, in assay [1], the tumor size result is on record as “significantly decreased tumor size”. In assay [2], the “Y705 phosphorylation of STAT3” value is recorded as “decreased Y705 phosphorylation of STAT3”.
